Legend:
[1] = target: human A1 receptor subtype (Homo sapiens, UniProt P30542); test: biochemical
[2] = target: hA3R (Homo sapiens, UniProt P0DMS8); test: Displacement binding of [3H]CPX, yeast membranes expressing human A3 receptor; conditions: read-out: IC50 [nM] hA3R, 0.4 nM [3H]CPX

The chains behind the UniProt entries cited, without tags or fusion partners.
UniProt P30542, whole entry: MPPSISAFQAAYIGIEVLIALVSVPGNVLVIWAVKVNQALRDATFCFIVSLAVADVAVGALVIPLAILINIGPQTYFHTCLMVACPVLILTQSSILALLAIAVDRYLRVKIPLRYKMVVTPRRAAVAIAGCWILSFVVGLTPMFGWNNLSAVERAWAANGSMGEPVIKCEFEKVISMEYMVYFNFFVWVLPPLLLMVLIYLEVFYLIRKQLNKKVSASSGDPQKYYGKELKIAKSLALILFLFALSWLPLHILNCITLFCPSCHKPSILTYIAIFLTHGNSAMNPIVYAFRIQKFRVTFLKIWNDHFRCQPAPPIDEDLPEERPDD
UniProt P0DMS8, whole entry: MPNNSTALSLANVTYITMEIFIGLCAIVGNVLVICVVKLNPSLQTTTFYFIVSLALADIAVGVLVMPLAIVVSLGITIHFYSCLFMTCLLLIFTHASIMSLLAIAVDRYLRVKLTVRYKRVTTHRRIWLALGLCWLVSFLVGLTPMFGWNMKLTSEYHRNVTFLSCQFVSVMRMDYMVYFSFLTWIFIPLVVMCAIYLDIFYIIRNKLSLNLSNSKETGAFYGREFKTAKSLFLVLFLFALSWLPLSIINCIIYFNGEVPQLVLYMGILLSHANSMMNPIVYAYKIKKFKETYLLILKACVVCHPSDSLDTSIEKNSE

Row | Ki [1] [µM] | IC50 [2] [nM] | SMILES
1 | 0.0098 to 0.0251 |  | CC(=O)NCCNc1nc(-c2ccccc2)nc2[nH]c(C)c(C)c12 [Compound 1300]
2 |  | 23.6 | C[C@H](Cc1ccccc1)Nc1ncnc2c1ncn2[C@@H]1O[C@H](CO)[C@@H](O)[C@H]1O [(R)-PIA]

From patent US20030139427A1, “Bicyclic pyrimidinyl derivatives and methods of use thereof” (OSI Pharmaceuticals Inc., priority 2002, published 2003)
